PMC5050210, “BdorOBP83a-2 Mediates Responses of the Oriental Fruit Fly to Semiochemicals” (Frontiers in Physiology, 2016)

Target: T1, BdorOBP83a-1 (Bactrocera dorsalis, UniProt A0A0G2UGI4)
T1 construct: gene OBP83a-1; mature protein without signal peptide
T1 sequence (A0A0G2UGI4 32-155): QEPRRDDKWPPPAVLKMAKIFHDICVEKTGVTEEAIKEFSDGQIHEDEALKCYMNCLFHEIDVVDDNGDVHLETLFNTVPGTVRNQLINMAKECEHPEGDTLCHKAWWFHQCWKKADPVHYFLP
Assay: biochemical
Parameters: Fluorescence competitive displacement of 1-NPN from recombinant OBP, 25 °C, pH 7.4; competitor 5-50 uM
Conditions: 1-NPN displacement, 2 uM protein, 2 uM 1-NPN, extrapolated
Protocol: Fluorescence spectra were measured on an F-7000 FL Fluorescence Spectrophotometer (Hitachi) in a 10 mm light path quartz cuvette at 25°C. All were excited at 337 nm with emission and excitation slit of both 10 nm. The emission spectra were recorded between 350 and 500 nm. […] All measurements were performed in triplicates and mean values and standard errors are calculated. […] To determine the roles of specific OBPs in recognition of attractants in B. dorsalis, recombinant proteins of selected antenna-abundant OBPs and CSPs were obtained using a prokaryotic expression system (Figure 5). Purified OBPs and CSPs were used to determine binding affinity of each protein via fluorescence competitive binding assays. Thirteen pure attractant compounds were tested against each recombinant protein. […] Except for BdorCSP3 and BdorOBP84a-2, all remaining OBPs could bind to the tested compounds (Figure 6; Table S8). […] Alternatively they might be involved in functions other than odor detection. […] Overall, we observed lower binding affinity with our recombinant proteins and tested attractants. […] In other studies, much higher affinity has been reported. […] The biological significance of the observed lower affinity with B. doralis OBPs here remains to be determined. […]

IC50: > 50 µM
SMILES: CCCCCCCC1CCC(=O)O1 (stereo not shown) [γ-undecalactone]
